Test results taken from patent EP0942906B1, “COMPOUNDS USEFUL FOR INHIBITION OF FARNESYL PROTEIN TRANSFERASE” (SCHERING CORPORATION, priority 1996, dated 1998).
pIC50: −log10 of the molar value. Where two headings read alike, the source gives them in different places.

Molecular target: farnesyl protein transferase (Homo sapiens, UniProt P49354+P49356)
Assay: FPT IC50, inhibition of farnesyl protein transferase, in vitro enzyme assay (procedure of WO 95/10516)
Assay type: biochemical
Details: range stated for the listed group of compounds
Description: FPT IC50 (inhibition of farnesyl protein transferase, in vitro enzyme assay) and COS Cell IC50 (Cell-Based Assay) were determined following the assay procedures described in WO 95/10516, published April 20, 1995. GGPT IC50 (inhibition of geranylgeranyl protein transferase, in vitro enzyme assay), Cell Mat Assay, and anti-tumor activity (in vivo anti-tumor studies) could be determined by the assay procedures described in WO 95/10516.

pIC50 (H-ras, read-out: FPT IC50 (H-ras)): 7.50 to 8.70
pIC50 (k-ras, read-out: FPT IC50 (k-ras)): 7.15 to 7.84
Structure (SMILES): NCC(=O)N1CCC(CC(=O)N2CCC([C@H]3c4ncc(Br)cc4CCc4cc(Cl)cc(Br)c43)CC2)CC1 [Compound 16.0]
